Assay results published in ChEMBL document CHEMBL5058646 (2022).

Key:
Conditions in all cases: SUD4
[1] = target: T1, Zinc finger and BTB domain-containing protein 40 (Homo sapiens) (UniProt Q9NUA8)
T1 sequence (whole entry): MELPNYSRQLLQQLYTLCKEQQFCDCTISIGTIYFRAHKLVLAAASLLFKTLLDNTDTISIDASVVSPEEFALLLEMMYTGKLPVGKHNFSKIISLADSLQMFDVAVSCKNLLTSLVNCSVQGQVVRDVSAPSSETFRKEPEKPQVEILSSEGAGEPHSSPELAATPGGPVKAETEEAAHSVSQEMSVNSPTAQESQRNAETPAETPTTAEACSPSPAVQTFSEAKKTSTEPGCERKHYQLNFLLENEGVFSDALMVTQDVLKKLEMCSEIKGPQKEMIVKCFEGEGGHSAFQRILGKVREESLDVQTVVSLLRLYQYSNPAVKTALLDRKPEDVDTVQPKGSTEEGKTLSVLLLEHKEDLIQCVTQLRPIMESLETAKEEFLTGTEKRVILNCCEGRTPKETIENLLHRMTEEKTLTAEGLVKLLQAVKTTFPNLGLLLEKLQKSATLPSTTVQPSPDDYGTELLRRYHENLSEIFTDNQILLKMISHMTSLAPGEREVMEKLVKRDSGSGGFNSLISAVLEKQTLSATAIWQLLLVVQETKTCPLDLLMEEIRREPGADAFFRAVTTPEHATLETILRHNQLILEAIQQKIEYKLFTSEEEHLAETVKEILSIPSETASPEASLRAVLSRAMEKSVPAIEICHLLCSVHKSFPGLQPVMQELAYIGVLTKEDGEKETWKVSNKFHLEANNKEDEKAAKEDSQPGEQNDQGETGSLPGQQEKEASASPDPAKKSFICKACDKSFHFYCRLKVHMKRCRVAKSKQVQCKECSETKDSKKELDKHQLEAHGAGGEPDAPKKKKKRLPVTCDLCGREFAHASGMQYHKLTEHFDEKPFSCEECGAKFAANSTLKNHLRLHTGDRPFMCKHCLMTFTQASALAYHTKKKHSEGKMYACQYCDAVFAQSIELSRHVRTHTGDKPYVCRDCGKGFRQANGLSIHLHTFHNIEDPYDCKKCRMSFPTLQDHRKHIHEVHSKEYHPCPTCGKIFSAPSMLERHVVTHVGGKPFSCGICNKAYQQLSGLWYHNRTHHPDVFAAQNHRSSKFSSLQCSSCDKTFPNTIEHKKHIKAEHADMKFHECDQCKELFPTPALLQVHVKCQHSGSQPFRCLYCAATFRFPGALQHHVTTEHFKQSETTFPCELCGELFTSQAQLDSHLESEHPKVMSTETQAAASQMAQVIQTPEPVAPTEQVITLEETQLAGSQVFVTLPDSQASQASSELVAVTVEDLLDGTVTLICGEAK

[2] = target: T2, Zinc finger and BTB domain-containing protein 1 (Homo sapiens) (UniProt Q9Y2K1)
T2 sequence (whole entry): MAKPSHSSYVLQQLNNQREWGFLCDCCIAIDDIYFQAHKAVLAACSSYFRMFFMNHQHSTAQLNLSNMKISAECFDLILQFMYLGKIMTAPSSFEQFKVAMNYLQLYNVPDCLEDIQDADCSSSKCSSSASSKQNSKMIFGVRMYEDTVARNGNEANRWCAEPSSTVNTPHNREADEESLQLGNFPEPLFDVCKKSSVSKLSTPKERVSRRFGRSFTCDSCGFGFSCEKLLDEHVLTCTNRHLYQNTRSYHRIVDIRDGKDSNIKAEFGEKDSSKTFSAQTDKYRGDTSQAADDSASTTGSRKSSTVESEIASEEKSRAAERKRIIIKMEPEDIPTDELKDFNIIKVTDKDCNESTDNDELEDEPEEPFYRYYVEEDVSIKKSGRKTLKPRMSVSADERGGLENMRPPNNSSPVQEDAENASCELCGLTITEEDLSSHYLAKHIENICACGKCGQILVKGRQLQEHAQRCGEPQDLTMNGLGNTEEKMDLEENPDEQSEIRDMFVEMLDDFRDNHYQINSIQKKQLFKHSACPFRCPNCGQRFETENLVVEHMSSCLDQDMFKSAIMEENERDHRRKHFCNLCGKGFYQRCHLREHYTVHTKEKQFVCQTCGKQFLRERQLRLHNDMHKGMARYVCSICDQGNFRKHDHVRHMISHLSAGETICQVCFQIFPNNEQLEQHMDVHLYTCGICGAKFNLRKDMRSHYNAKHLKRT

[3] = target: T3, Zinc finger and BTB domain-containing protein 21 (Homo sapiens) (UniProt Q9ULJ3)
T3 sequence (whole entry): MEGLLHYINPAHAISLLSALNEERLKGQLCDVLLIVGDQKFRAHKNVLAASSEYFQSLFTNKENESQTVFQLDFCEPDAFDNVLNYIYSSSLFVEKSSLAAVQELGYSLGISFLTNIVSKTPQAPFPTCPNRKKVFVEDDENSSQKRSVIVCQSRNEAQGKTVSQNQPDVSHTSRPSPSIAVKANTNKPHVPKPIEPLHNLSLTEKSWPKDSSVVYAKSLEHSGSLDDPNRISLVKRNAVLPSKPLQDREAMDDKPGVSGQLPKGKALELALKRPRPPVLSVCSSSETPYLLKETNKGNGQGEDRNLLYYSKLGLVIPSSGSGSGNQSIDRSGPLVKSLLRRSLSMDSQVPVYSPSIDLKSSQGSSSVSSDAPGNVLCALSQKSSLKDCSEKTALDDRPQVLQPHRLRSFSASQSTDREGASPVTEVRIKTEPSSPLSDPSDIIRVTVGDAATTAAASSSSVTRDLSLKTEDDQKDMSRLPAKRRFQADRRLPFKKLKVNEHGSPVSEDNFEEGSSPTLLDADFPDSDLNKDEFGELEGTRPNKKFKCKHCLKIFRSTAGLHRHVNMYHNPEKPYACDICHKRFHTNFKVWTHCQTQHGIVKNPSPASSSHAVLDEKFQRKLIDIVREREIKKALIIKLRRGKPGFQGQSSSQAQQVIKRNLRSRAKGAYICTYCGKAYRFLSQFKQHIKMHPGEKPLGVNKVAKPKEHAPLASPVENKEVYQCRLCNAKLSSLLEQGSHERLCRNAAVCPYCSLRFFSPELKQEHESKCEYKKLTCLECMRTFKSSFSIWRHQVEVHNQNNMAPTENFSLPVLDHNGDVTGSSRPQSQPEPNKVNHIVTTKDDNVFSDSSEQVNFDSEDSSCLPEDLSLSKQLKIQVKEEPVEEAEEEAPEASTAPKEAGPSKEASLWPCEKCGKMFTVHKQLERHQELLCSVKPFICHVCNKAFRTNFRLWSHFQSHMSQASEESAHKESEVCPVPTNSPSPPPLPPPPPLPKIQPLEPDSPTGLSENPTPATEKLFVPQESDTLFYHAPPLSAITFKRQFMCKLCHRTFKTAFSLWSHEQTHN

Normalized abundances for DMSO [1]: 1220
Normalized abundances for compound [1]: 1290
Normalized abundances for DMSO [2]: 3560
Normalized abundances for compound [2]: 3620
Normalized abundances for DMSO [3]: 433
Normalized abundances for compound [3]: 436
Structure (SMILES): C[C@@H]1CN(c2ncc(Cl)c(Nc3ccc4c(c3)n(CCC(C)(C)O)c(=O)n4C)n2)C[C@H](C)C1(F)F
